Test system: U-87 MG cells
Assay: cells
Conditions: Homo sapiens, read-out: BCAA IC50 U-87 MG cell line

Compound `CCCc1cc(=O)n2nc(NCc3c(F)cc(Cl)cc3F)c(C#N)c2[nH]1` [Compound A] has an IC50 of 5.3 µM.
